Experimental data taken from ChEMBL document CHEMBL4673218, “Kojyl cinnamate esters are peroxisome proliferator-activated receptor α/γ dual agonists” (Bioorg Med Chem, 2018).

Chains of the proteins cited; added tags and fusions are not shown. Lines headed by an entry give the natural chain unless they say otherwise; changes in a name come on top.
UniProt P37231: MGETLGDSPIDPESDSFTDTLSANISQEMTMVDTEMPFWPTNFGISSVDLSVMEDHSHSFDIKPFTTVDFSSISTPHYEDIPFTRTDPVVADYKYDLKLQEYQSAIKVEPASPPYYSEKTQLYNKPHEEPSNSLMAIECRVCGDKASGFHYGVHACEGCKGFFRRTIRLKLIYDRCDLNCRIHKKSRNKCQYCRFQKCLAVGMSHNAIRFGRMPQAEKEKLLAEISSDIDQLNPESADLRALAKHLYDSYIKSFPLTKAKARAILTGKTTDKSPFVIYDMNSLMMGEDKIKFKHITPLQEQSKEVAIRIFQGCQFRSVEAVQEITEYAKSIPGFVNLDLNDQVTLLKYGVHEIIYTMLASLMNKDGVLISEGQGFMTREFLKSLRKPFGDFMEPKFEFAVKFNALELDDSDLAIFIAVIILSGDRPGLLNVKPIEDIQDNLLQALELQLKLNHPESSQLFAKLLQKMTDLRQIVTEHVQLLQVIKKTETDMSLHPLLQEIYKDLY
UniProt Q07869: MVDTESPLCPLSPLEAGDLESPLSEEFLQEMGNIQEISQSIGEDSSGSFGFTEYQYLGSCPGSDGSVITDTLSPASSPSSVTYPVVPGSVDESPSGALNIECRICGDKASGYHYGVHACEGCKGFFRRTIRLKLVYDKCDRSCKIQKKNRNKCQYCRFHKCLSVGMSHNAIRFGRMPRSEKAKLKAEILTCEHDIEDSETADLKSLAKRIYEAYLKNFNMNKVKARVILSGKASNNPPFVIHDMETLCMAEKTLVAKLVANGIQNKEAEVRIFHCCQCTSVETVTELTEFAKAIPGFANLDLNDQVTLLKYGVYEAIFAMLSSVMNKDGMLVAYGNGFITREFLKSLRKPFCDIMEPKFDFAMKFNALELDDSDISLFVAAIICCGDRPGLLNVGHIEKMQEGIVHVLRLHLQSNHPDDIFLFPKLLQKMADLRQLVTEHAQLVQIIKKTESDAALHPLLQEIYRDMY

Molecular target: PPAR alpha/gamma (Homo sapiens) (UniProt P37231+Q07869)
Assay: Agonist activity at PPARalpha/PPARgamma in human AT-MSC cells assessed as upregulation of ACAT1 mRNA at 10 uM incubated for 3 days by qRT-PCR analysis
Assay type: cell-based
Details: Adipose tissue derived mesenchymal stem cell, filed as agonist, time 3.0 day

Compound | fold change (FC)
COc1cccc(/C=C/C(=O)OCc2cc(=O)c(O)co2)c1OC | 1.91
COc1ccc(OC)c(/C=C/C(=O)OCc2cc(=O)c(O)co2)c1 | 2.5
